Results from paper PMC4180209 (Arteriosclerosis, thrombosis, and vascular biology, 2014).

Assay: Clinical evaluation and platelet counts in M. fascicularis
Details: 1.93 mg/kg IM; on one occasion

## NCC(=O)Nc1cncc(-c2nn3c(=O)cc(N4CCNCC4)nc3s2)c1 [RUC-4]
  bleeding observation: slight amount of blood was found on the rectal thermal probe
